Data on 1 substance can be found in article PMC8347464, “Design, Synthesis, and In Vitro Antiproliferative Activity of Hydantoin and Purine Derivatives with the 4-Acetylphenylpiperazinylalkyl Moiety” (Materials, 2021).

The chains behind the UniProt entries cited, without tags or fusion partners. Where a name states a change or a piece, a line headed by the entry shows the natural chain unless it says otherwise.
UniProt P07650: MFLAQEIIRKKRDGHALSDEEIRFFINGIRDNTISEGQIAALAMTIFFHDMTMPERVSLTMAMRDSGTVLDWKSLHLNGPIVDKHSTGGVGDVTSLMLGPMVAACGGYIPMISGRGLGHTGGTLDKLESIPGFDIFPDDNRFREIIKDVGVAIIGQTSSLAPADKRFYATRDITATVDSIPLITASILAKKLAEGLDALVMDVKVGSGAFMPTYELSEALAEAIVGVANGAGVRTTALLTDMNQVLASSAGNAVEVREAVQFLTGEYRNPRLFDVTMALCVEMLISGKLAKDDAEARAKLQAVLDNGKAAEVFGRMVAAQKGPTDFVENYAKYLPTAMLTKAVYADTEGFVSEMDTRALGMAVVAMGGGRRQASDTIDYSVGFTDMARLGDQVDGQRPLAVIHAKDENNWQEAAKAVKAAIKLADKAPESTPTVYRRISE

This experiment deals with T1, E. coli TP (thymidine phosphorylase, TP/PD-ECGF) (Escherichia coli, UniProt P07650).
T1 construct: purchased Sigma T6632
The experiment is described as follows: Thymidine phosphorylase inhibition. Particulars: 100 µM screening concentration. The class given is biochemical. The procedure:
TP/PD-ECGF (E. coli TP (Sigma T6632)) activity was determined by measuring the absorbance at 290 nm spectrophotometrically, according to the manufacturer′s procedure. Briefly the reaction mixture of 145 µL of potassium phosphate buffer (pH 7.4), 20 µL of 1.5 mM Thymidine 50 monophosphate solution as substrate, and 30 µL of an enzyme (E. coli TP, 0.05 and 0.002 U) was incubated with 5 µL of test materials for 10 min at 25 °C in a 96-well, flat bottom microplate (200 µL). Readings were taking by a microplate reader (SpectraMax Plus384, USA) at 290 nm. The readings were taken continuously after 10, 20, and 30 min by a microplate reader. All assays were performed in triplicate.

Regarding “7-Deazaxanthine [Compound 7-DX, reference compound]”, the “inhibition of thymidine phosphorylase activity” value is 54.55%.
